scFv variants of Ab-14 (heavy chain) against a SARS-CoV-2 spike peptide

The measurements come from Li et al. 2023 (doi:10.1038/s41467-023-39022-2) through the FLAb antibody collection.

Target: peptide PDVDLGDISGINAS, taken from heptad repeat 2 (HR2) of SARS-CoV-2 spike.

Ab-14 is the parent antibody, in scFv form: VH, then a 15-residue (Gly4Ser)3 linker, then VL. The light chain is unchanged in all variants.
VH: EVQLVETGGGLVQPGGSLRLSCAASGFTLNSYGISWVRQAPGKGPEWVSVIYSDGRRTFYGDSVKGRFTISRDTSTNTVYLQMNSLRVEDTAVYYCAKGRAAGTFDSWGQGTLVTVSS
VL: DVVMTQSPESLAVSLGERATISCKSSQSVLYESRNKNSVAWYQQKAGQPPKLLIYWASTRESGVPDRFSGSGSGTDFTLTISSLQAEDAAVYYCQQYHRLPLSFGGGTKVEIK

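The starting antibody came from a phage panning campaign against this peptide. The variants were designed computationally from a first round of random CDR variants and then made and measured. Several design methods are mixed in this list. Affinity was read by AlphaSeq, a pooled yeast mating assay with surface-displayed partners. Mating (16 h, 30 °C) was followed by selection of diploids and sequencing of their barcodes. Read counts were normalised to the haploid input and turned into Kd by a linear fit to BCL2-family pairs of known affinity, for each replicate. Each pool was mated in six replicate cultures.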

Substitutions are numbered in sequence along the VH above, starting at 1 (not Kabat).
This list holds designs with at most six substitutions.
The Kd shown is the geometric mean over detected replicates; a lower Kd is a better binder.
Where no diploid with the target was found in any replicate, the entry reads "nd": below detection, most likely a poor binder, though not proof of it.
Nonspecific signal, from three strains lacking the peptide, appeared in 1% of pairings of all heavy chain designs, centred on 120 nM (5% of these signals below 7.0 nM); values are not corrected for it.

- S31D/F59Q/G61I/D62K = nd (0 of 6 replicates)
- G61T/G99D/A102D/S107L = nd (0 of 6 replicates)
- N30E/S31D/S63A/A101V/T104F = 260 nM (1 of 6 replicates)
- S53A/F59A/G61L/V64Y = nd (0 of 6 replicates)
- T28S/S31E/R100M/S107R = 880 pM (6 of 6 replicates)
- S31E/A101N/S107E = 640 pM (6 of 6 replicates)
- S31Q/G61S/R100K/A101D = 5.0 nM (6 of 6 replicates)
- S63D/R100N/A101E/S107T = 1.7 nM (6 of 6 replicates)
- T28D/S63Q/R100Q = 2.5 nM (6 of 6 replicates)
- T28D/G61A/A101Q/S107D = 2.6 nM (5 of 6 replicates)
- N30S/A102K/F105N/D106F/S107V = nd (0 of 6 replicates)
- L29C/N30D/F105A/D106L = nd (0 of 6 replicates)
- T28H/G61V/A101Q = nd (0 of 6 replicates)
- S31D/F59A/G61S = 1.9 nM (6 of 6 replicates)
- T28F/S31E/R100Q/S107A = 16 nM (6 of 6 replicates)
- G61E/K65R = 490 nM (4 of 6 replicates)
- S31E/G103F/S107Q = nd (0 of 6 replicates)
- T28C/S31D/F59Y/G61I = nd (0 of 6 replicates)
- T28S/S31N/G61S/R100K = 2.0 nM (6 of 6 replicates)
- T28E/S31E/G61H/A101Q = 3.3 nM (6 of 6 replicates)
- S53A/F59M/A101E/G103H = nd (0 of 6 replicates)
- T58H/G61S/A102G = 69 nM (6 of 6 replicates)
- T28I/G61S/S63L = nd (0 of 6 replicates)
- G61E/R100Q/A101V = 180 pM (6 of 6 replicates)
- N30M/G61L/D62W/R100E/G103Q/D106P = nd (0 of 6 replicates)
- T28N/S63N/A101Q/S107T = 36 nM (6 of 6 replicates)
- S31D/F59Q/G61I/A101C/D106N = 130 nM (1 of 6 replicates)
- T28W/S53A = 14 nM (12 of 12 replicates)
- F59Y/R100T/A101V/D106S = 1.3 nM (4 of 6 replicates)
- N30L/S31D/G61V = 570 nM (4 of 6 replicates)
- L29I/S31L/R56Y/G103K = nd (0 of 6 replicates)
- T28D/Y32F/G61L/A101L = 69 nM (6 of 6 replicates)
- G61Q/G103F = 230 nM (2 of 6 replicates)
- G26Y/T28S/G61I/R100N = 11 nM (1 of 6 replicates)
- N30H/S63N/K65R/D106L = nd (0 of 6 replicates)

Extract of 2 entries:

- N30H/S63N/K65R/D106L = nd (0 of 6 replicates)
- S63D/R100N/A101E/S107T = 1.7 nM (6 of 6 replicates)

A sequence that the file lists under several names has all its replicates pooled.
The range of this assay differs from that of the first round, and the authors advise against merging the two.
The authors' rule: three or more of the six replicates give a measured affinity, fewer mean a poor binder.
The parent sequence was in this pool as ten entries: three were never detected, three once, and four in most replicates, with averages from 2.2 nM to 240 nM.